From publication PMC9122598, “NASP maintains histone H3–H4 homeostasis through two distinct H3 binding modes” (Nucleic Acids Research, 2022)

Target: sNASPc-GGGSGGGS-ASF1b HBD (human) (UniProt P49321)
Assay: SEC-MALS; co-expressed and co-purified covalent sNASPc-8G-ASF1b–H3–H4 heterotetramer, 20 mM Tris pH 7.5, 0.5 M NaCl

## histone H4 (in the sNASPc-8G-ASF1b–H3–H4 heterotetramer) (from UniProt P62805 2-103) (natural protein)
  stoichiometry N: 1

## histone H3.3 (in the sNASPc-8G-ASF1b–H3–H4 heterotetramer) (from UniProt P84243 2-136) (natural protein)
  stoichiometry N: 1
